Data on one molecule can be found in patent US20130266564A1 (NATIONAL RESEARCH COUNCIL OF CANADA, published 2013).

This assay addresses T1, ErbB2 (eBiosciences Inc.) (UniProt P04626, in part).
T1 construct: also called HER2; Her2
As to the kind of experiment: SPR (BioRad Proteon), antibody captured, ErbB2 as analyte, 1:1 Langmuir fit.

B1: Variant 7-1 (antibody, human IgG1, kappa, V domains shown)
VH: [in this place about 120 residues]
VL: DIQMTQSPSSLSASVGDRVTITCRASQDVNTAVAWYQQKPGKAPKLLIYSASFLYSGVPSRFSGSRSGTDFTLTISSLQPEDFATYYCQQHYTTPPTFGQGTKVEIKR
notes: also called m5-HC + wt-LC
What is called Kd is the constant that tells how readily two partners part at equilibrium. A lower Kd goes with tighter binding. One may read the koff as a measure of how fast the partners let go of each other. Higher therefore signals fast dissociation. The kon is a measure of how fast the partners come together. A lower kon goes with slower complex formation. In turn, B1 gave a Kd of 0.243 nM, a dissociation rate constant (koff) of 0.000172 s⁻¹ and a kon of 707000 M⁻¹ s⁻¹.
